Values quoted from earlier work as cited in patent US8507276B2, “Tissue culture media used as a component of cosmetics” (La Prairie Group AG, priority 2003, dated 2013).
Read-outs that look alike come from different tables or passages of the source.

Row | Substance | Polarity (medium-polar lipids) | Polarity (polar lipids)
1 | Butylene Glycol Caprylate/Caprate [Dermofeel BGC] | 21.5 mN/m | 
2 | Di-C12/13 Alkyl Tartrate [Cosmacol ETI] |  | 7.1 mN/m
3 | Diethylene Glycol Dioctanoate/Diisononanoate [Dermol 489] |  | 8.6 mN/m
